Literature values in article PMC8908504, “Modifications of the Triaminoaryl Metabophore of Flupirtine and Retigabine Aimed at Avoiding Quinone Diimine Formation” (ACS Omega, 2022).
Marks after values point to notes of the source that are not given here.

Test system: TAMH cells
Conditions: MTT assay, 24 h exposure; cited from earlier work

CCOC(=O)Nc1ccc(NCc2ccc(F)cc2)cc1N [compound 2, retigabine]
LD25: >400 ^f μM
